Experimental data taken from article PMC10006343 (ACS Infectious Diseases, 2023).

Protein sequences, listed by entry. Tags and fused reporters are not part of them. Lines headed by an entry give the natural chain unless they say otherwise; changes in a name come on top. Residues count along the entry.
UniProt P9WG45: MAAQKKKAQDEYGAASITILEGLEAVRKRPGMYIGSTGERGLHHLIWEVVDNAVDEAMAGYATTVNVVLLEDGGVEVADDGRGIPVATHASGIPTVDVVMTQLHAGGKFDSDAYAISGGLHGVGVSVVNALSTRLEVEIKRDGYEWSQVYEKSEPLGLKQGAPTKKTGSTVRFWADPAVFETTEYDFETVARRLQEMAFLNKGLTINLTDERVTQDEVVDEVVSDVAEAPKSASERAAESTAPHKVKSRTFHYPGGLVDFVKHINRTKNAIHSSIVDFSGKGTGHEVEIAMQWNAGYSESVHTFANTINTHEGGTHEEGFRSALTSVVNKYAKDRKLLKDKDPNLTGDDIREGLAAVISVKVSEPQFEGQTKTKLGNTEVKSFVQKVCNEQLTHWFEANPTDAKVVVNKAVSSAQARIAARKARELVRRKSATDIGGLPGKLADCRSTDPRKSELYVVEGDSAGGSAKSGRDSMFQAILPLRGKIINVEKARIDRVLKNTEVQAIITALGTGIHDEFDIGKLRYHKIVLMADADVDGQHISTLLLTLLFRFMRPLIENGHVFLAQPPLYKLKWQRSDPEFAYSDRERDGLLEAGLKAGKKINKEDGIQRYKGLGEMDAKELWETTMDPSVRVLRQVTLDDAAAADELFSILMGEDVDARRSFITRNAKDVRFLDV
UniProt P9WG47, 2-838: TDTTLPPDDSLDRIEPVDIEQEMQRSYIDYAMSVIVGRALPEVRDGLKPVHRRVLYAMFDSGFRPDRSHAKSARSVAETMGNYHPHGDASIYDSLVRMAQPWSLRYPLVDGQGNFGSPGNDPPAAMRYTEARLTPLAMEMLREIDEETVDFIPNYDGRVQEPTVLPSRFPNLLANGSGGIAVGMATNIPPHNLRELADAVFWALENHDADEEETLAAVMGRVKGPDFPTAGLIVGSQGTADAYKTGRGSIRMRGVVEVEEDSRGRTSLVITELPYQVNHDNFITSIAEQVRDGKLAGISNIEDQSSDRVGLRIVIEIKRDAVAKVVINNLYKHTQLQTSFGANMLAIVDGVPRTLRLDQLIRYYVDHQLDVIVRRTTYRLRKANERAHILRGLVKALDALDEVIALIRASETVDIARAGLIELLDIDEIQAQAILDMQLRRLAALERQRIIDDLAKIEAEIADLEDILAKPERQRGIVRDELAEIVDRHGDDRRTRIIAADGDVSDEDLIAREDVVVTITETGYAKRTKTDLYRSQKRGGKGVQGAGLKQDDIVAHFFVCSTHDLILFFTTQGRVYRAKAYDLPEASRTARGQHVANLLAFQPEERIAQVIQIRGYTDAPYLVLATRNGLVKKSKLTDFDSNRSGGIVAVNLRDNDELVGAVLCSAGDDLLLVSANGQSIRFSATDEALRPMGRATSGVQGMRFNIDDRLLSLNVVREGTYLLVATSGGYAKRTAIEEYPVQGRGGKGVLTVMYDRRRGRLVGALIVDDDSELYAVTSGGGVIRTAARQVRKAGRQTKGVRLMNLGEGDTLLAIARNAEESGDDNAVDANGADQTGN

Molecular target: M. tuberculosis gyrase (GyrA/GyrB) (Mycobacterium tuberculosis, UniProt P9WG45+P9WG47)

Row | Structure (SMILES) | DNA cleavage assay with purified gyrase
1 | C[C@@H]1CN2c3c(cc4c(N5CC[C@H](O)C5)noc4c3F)CC3(C(=O)NC(=O)NC3=O)[C@H]2[C@H](C)O1 [compound 4882, H3D-004882] | The related SPTs, H3D-004882 and H3D-005709 (which differ at the R2 position), also induced gyrase-mediated DNA cleavage.
2 | C[C@@H]1CN2c3c(cc4c(N5CC[C@H](O)C5)noc4c3F)CC3(C(=O)NC(=O)NC3=O)[C@H]2[C@H](C)N1C#N [compound 4912, H3D-004912] | In both cases, the presence of the amino-cyano group enhanced the activity of the parent compound
3 | C[C@@H]1CN2c3c(cc4c(OCCCO)noc4c3F)CC3(C(=O)NC(=O)NC3=O)[C@H]2[C@H](C)O1 [compound 5709, H3D-005709] | The related SPTs, H3D-004882 and H3D-005709 (which differ at the R2 position), also induced gyrase-mediated DNA cleavage.
